# Antibody variant affinities, Ab-14 light chain, assay B

From the AlphaSeq antibody data of Li et al. 2023 (doi:10.1038/s41467-023-39022-2), copy in the FLAb collection.

Target: peptide PDVDLGDISGINAS, taken from heptad repeat 2 (HR2) of SARS-CoV-2 spike.

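Designed CDR sequences, proposed from the first random library and measured here. Group labels follow the data file (Ctrl: baseline library sampled from a position-specific scoring matrix, with some repeated check sequences; GP: Gaussian process model; HC: hill climbing; Gen: genetic algorithm; Gibbs: Gibbs sampling; a sequence that several methods proposed may carry one label only). The assay is AlphaSeq: two haploid yeast populations carry antibody and antigen on their surface. Pairs that bind mate more often; barcode pairs of the diploids are counted by sequencing. Each replicate has its own calibration line, from reference interactions of the BCL2 family. There are six technical replicates.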

Each scFv is VH, a 15-residue (Gly4Ser)3 linker, VL, as in the parent Ab-14, and differs from it in the CDRs of the light chain only.
VH: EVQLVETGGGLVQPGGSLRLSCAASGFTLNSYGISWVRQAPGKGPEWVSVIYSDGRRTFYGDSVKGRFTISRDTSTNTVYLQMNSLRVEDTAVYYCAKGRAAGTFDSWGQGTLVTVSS
VL: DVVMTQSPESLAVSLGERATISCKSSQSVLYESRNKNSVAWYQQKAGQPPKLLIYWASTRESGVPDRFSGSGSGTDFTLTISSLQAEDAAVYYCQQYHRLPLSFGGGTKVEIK

Each variant is given by its three light chain CDRs, as the data file delimits them; those of the parent are KSSQSVLYESRNKNSVA, WASTRES, QQYHRLPLS. This list holds designs with at most six substitutions. Each Kd is an estimate from the mating assay, the geometric mean of the replicates in which the pair was seen; lower is stronger. Where no diploid with the target was found in any replicate, the entry reads "nd": below detection, most likely a poor binder, though not proof of it.

Variant KSSQGVLYESRNKNSIA / WATTRES / QQYHRLPLS [Ctrl] gave 23 nM (6 of 6 replicates).
Variant QSMQSVLYESMNKNSVA / WASTRES / QQYHRWPLS [Ctrl] gave nd (0 of 6 replicates).
Variant KLSQSMEYESRNKNSVA / QASTREH / QQYHRLPLM [GP_Gibbs] gave 810 pM (6 of 6 replicates).
Variant KSDKSMLYESGNKNSVA / GASTRHS / QQYHRLPLS [Ctrl] gave 2.3 nM (6 of 6 replicates).
Variant KSSQSVLYESRNFNSVA / DASTRES / QQYHRLPLS [GP_Gen] gave 840 pM (6 of 6 replicates).
Variant KSPQSVLYESRNKNSVA / WAATRES / QQYHRLPLS [Ctrl] gave 410 nM (2 of 6 replicates).
Variant KLLQSVLYESRMKNSVA / HASTRED / QQYHRLPLS [GP_HC] gave 1.1 nM (6 of 6 replicates).
Variant KLSQSVLYESRNKNSVA / EASTREM / QQYHRLPLS [GP_Gen] gave 530 pM (6 of 6 replicates).
Variant KSSQSVLYESRNKNSVA / GAKTRES / QQYHRLPLS [Ctrl] gave 18 nM (6 of 6 replicates).
Variant KLMQSVPYESRNKNSVA / NASQRES / QQYHRLPLS [GP_Gen] gave 950 pM (6 of 6 replicates).
Variant KSSQSVLYESRNKNSVA / WASTRES / QQYHVLPLS [Ctrl] gave 590 nM (2 of 6 replicates).
Variant KWSQSVLYNYRNKNSLA / GASTRES / QQYHRLPLS [Ctrl] gave 3.4 nM (6 of 6 replicates).
Variant KSSQSVKFESRNKNSVA / DASTRED / QQYHRLPLS [GP_HC] gave 1.6 nM (6 of 6 replicates).
Variant KLSQSWEYESRNKNSVA / NASTRLS / QQYHRLPLS [GP_Gen] gave 840 pM (6 of 6 replicates).
Variant KLMGSMLYESRNKNSVA / NASTRES / QQYHRLPLS [GP_Gen] gave 490 pM (6 of 6 replicates).
Variant KSSGSVLIESRNKNSVA / WASTRES / QQYHRLPLS [Ctrl] gave nd (0 of 6 replicates).
Variant KAEQSWLYESRNKNSVA / GASTRES / QQYHRLPLI [GP_HC] gave 1.1 nM (6 of 6 replicates).
Variant KFSGSQLYESRNSNSVA / HASTRES / QDYHRLPLS [GP_Gibbs] gave 1.1 nM (6 of 6 replicates).
Variant KSLGSVLYESRDKNSVA / HASTRED / QQYHRLPLS [GP_HC] gave 5.3 nM (6 of 6 replicates).
Variant KSSLSVMYESRDKNSVA / NATTRES / QQYHRLPLS [Ctrl] gave 2.1 nM (6 of 6 replicates).
Variant KSSQSVLKEYRNKNSVA / WASTRES / QQYHRLPLS [Ctrl] gave nd (0 of 6 replicates).
Variant KSSQSQLYESRNKNSVA / NASTRED / QQYHRLPLS [GP_HC] gave 1.2 nM (6 of 6 replicates).
Variant KLSQGWLYESRNKNSVA / NASQRES / QQYHRLPLS [GP_Gen] gave 690 pM (6 of 6 replicates).
Variant KISQSVLYEWRNKNSVA / DASTRES / QQYHRLPLS [GP_HC] gave 760 pM (6 of 6 replicates).
Variant KVSQSVLQESRNKNSVA / DASIRES / QQYHRLPLS [Ctrl] gave 770 pM (6 of 6 replicates).
Variant KQSQSELYESRNKNSVA / NASQRES / QQYHRLPLS [GP_Gen] gave 950 pM (6 of 6 replicates).
Variant MSKQSVLYESRNKNSVA / WASTRES / QQYHRLPLS [Ctrl] gave 380 nM (4 of 6 replicates).
Variant KLKQSELYESRNKNSVA / EASTRES / QQYHRLPLS [GP_Gen] gave 8.8 nM (6 of 6 replicates).
Variant KLSQSQLYESRQKNSVA / NASTRLS / QQYHRLPLS [GP_Gen] gave 1.1 nM (6 of 6 replicates).
Variant KLDQSVLYESRNKNSVA / NASTRCS / QQYHRLPLS [GP_Gen] gave 1.1 nM (6 of 6 replicates).
Variant KMSQSVLYESRNSNAVA / QASQRES / QQYHRLPLS [GP_Gibbs] gave 800 pM (6 of 6 replicates).
Variant KVEQSHLYESRNKNSVA / NASTRLS / QQYHRLPLS [GP_Gen] gave 900 pM (6 of 6 replicates).
Variant KVSQSHLYESRNKNQVA / EASTRES / QQYHRLPLS [GP_Gen] gave 2.1 nM (6 of 6 replicates).
Variant KLPQSWWYESRNKNSVA / NASTRES / QQYHRLPLS [GP_Gen] gave 1.5 nM (6 of 6 replicates).
Variant KLSQSEMYESRNKNSVA / EASTRES / QQYHRLPLS [GP_Gen] gave 800 pM (6 of 6 replicates).
Variant KYYPSYLYESRNKNSVA / HASTRES / QQYHLLPLS [GP_HC] gave 1.1 nM (6 of 6 replicates).
Variant KSSQSVDYESRNKNSVA / NATTRES / QQYHRPPLS [Ctrl] gave 12 nM (6 of 6 replicates).
Variant KSSQSVLMSSRNKNSVA / WASTRES / QQYHRLPLS [Ctrl] gave 93 nM (5 of 6 replicates).

Empty control strains, which show no peptide, gave a signal in 4% of pairings with all light chain designs; the median was 430 nM and 95% of these signals were weaker than 38 nM. No background was subtracted. A sequence measured in both rounds can read differently, since the two assays cover different ranges. In the paper, a design with two or fewer of six values counts as a poor binder. The parent sequence was in this pool as ten entries: three were never detected, three once, and four in most replicates, with averages from 2.2 nM to 240 nM.